Fold weaker binding to LIR1 than GABARAP and fold weaker binding to LIR1 than GABARAPL1 data for one substance are collected here from article doi:10.1101/2024.07.10.602929.

The experiment addresses EGFR LIR1 peptide (EGFR residues 1076–1099), N-terminally biotinylated (UniProt P00533). Put plainly: BLI. For orientation: In BLI a coated tip is dipped into the sample, and binding shifts an interference pattern.

“LC3B (from UniProt Q9GZQ8 1-120) (natural protein)” registered a fold weaker binding to LIR1 than GABARAP of 8 fold and a fold weaker binding to LIR1 than GABARAPL1 of 20 fold.
